Reference: US20230050440A1 (Seagen, published 2023)

Target: T1, cyno TIGIT-Fc (cynomolgus monkey)
T1 construct: not shown: Fc part
Experiment: BLI (ForteBio), IgG on sensor, avid

- Kd: 1.16 nM
B1: Clone 13D (antibody, V domains shown)
VH: QVQLVQSGAEVKKPGSSVKVSCKASGGTFLSSAISWVRQAPGQGLEWMGSIIPYFGKANYAQKFQGRVTITADESTSTAYMELSSLRSEDTAVYYCARGPSEVKGILGYVWFDPWGQGTLVTVSS
VL: not shown
